Literature values in article PMC10516900 (Communications Biology, 2023).

Molecular target: Ub
Parameters: method as in PMID 29056420
Conditions: wild type USP7; read-out: binding affinity for Ub; cited from earlier work

## USP7: wild type USP7, Ub binding value from ref 29
  Kd: 106 ± 15.9 µM
